For the series, the target named is hERG ion channel (Homo sapiens, UniProt Q12809). The settings on record: 0.05 μM.

Protein sequences, listed by entry. Tags and fused reporters are not part of them. Lines headed by an entry give the natural chain unless they say otherwise; changes in a name come on top.
UniProt Q12809: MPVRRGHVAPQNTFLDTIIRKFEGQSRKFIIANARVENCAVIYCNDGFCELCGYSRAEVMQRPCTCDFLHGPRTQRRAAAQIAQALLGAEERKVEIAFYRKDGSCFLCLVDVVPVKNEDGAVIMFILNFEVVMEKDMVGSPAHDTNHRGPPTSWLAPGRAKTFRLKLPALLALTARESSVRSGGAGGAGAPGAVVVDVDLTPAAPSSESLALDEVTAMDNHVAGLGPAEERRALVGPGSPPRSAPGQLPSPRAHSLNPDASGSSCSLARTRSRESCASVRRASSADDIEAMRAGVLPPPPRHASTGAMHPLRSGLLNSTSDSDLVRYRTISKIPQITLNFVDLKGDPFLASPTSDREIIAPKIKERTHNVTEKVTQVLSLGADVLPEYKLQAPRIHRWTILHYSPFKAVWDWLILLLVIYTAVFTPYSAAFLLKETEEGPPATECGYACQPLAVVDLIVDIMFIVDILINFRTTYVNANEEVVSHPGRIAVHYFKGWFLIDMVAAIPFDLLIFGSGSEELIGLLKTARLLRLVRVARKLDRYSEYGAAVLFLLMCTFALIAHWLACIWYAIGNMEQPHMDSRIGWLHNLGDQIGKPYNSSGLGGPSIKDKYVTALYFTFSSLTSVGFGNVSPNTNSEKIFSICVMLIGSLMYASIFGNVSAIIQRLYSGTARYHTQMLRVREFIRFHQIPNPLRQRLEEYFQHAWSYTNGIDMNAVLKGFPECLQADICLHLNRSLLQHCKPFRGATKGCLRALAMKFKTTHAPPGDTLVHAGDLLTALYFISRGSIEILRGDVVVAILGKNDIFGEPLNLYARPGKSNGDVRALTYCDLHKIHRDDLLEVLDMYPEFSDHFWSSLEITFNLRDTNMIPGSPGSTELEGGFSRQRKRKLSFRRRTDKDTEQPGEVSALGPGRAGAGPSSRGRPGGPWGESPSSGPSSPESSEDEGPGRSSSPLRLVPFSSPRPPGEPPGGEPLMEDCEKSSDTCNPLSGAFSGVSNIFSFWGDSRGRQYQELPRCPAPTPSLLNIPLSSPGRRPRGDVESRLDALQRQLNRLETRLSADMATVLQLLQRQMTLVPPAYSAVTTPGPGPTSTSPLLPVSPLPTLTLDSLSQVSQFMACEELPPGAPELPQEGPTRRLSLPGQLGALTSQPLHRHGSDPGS

`COc1cc(N)c(Cl)cc1C(=O)NC1CCN(CCCOc2ccc(F)cc2)CC1OC` (stereo not shown) [cisapride] returned a hERG channel inhibition of 69 ± 4%.

Values taken from paper PMC10785772 (Science translational medicine, 2023).
